Laboratory results from publication PMC8252719, “Macrocyclic FKBP51 Ligands Define a Transient Binding Mode with Enhanced Selectivity” (Angewandte Chemie (International Ed. in English), 2021).

Biological target: T1, FKBP51FK1 (Homo sapiens, UniProt Q13451)
T1 sequence (Q13451 42-130 limits assumed): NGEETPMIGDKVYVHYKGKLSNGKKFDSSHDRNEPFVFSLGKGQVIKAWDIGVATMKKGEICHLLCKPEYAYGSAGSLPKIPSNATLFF
Experiment: competitive fluorescence polarization assay, FKBP51FK1
Type: binding
Settings: ± = standard error from three independent measurements [b] or error from two independent measurements [d], read-out: FKBP51FK1 K i
Description: Table S1. Ki values were determined by a competitive fluoresc ence polarization assay.
4.1 Binding curves of 13a, c and d […]

Row | SMILES | Ki [µM]
1 | COc1ccc(CC[C@H]2OC(=O)[C@@H]3CCCCN3C(=O)[C@@H](C3CCCCC3)NC(=O)[C@H](C)NC(=O)COc3cccc2c3)cc1OC [13 j, (2R,5S,12R,15S)-12-cyclohexyl-2-[2-(3,4-dimethoxyphenyl)ethyl]-15-methyl-3,19-dioxa-10,13,16-triazatricyclo[18.3.1.0⁵,¹⁰]tetracosa-1(24),20,22-triene-4,11,14,17-tetrone] | 17
2 | COc1ccc(CC[C@H]2OC(=O)[C@@H]3CCCCN3C(=O)[C@@H](C3CCCCC3)NC(=O)[C@@H]3CCCN3C(=O)COc3cccc2c3)cc1OC [13 k, (9S,12R,19S,22R)-12-cyclohexyl-22-[2-(3,4-dimethoxyphenyl)ethyl]-2,21-dioxa-5,11,14-triazatetracyclo[21.3.1.0⁵,⁹.0¹⁴,¹⁹]heptacosa-1(26),23(27),24-triene-4,10,13,20-tetrone] | 5.1
